Laboratory results taken from PubChem BioAssay AID504462 (Sanford-Burnham Center for Chemical Genomics, 2011).
The list shows a part of the results, in another mix than the full data. Some of these compounds have results that are not shown, active ones among them. The source made the active and inactive calls. Rule as the data show it: active = inhibition above about 40%; inactive = the rest.

By UniProt entry, the sequences of proteins in these tests, tags left out.
UniProt Q9Y4P1, whole entry: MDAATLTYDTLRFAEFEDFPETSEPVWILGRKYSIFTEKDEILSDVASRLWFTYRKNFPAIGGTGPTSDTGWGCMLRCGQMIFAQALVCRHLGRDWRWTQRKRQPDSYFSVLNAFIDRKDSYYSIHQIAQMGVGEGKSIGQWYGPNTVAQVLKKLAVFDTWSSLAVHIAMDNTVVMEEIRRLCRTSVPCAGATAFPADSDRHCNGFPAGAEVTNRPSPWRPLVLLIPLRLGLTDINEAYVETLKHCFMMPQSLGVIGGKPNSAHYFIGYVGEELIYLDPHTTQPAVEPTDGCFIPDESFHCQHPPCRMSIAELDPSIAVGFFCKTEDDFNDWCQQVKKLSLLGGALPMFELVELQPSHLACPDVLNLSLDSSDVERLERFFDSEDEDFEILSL

What follows are molecules tested against Cysteine protease ATG4B (Homo sapiens) (UniProt Q9Y4P1) (assay: blockers of ATG4B cysteine protease activity – biochemical, fluorescence, uHTS, primary screen (AID 504462)). Conditions: ATG4B cleavage of LC3-PLA2, NBD-HPC fluorescence, 1 h; at 8.33 µM; active compounds read high.

SMILES	inhibition
O=C(OC1CN2CCC1CC2)C(CO)(c1ccccc1)c1ccccc1 (stereo not given)	inactive: -2.3%
CN(C)c1cccc(C(=O)NCC2(N(C)C)CCCCC2)c1	inactive: -0.47%
O=C(OCCN1CCCC1)C(O)(c1ccccc1)c1ccccc1	inactive: -11.7%
CC(C)Oc1ccc(C(=O)NCC2(N(C)C)CCCCC2)cc1	inactive: 3.6%
COc1ccc(Br)c(C(=O)NCC2(N3CCCCC3)CCCCC2)c1	inactive: -3.78%
COc1cc(C(=O)NCC2(N(C)C)CCCCC2)c([N+](=O)[O-])cc1OC	inactive: -1.19%
CN(C)C1(CNC(=O)c2ccc(Br)cc2)CCCCC1	inactive: -8.46%
O=C(NCC1(N2CCCCC2)CCCCC1)c1cccc(Cl)c1	inactive: -0.51%
COc1ccc(Cl)cc1C(=O)NCC1(N(C)C)CCCCC1	inactive: 0.76%
COc1cccc(C(=O)NCC2(N3CCCCC3)CCCCC2)c1	inactive: -7.52%
CN(C)c1ccc(C(=O)NCC2(N(C)C)CCCCC2)cc1	inactive: -2.39%
CN(C)C1CCCC1OC(=O)C(O)(c1ccccc1)c1ccccc1 (stereo not given)	inactive: 4.67%
Cc1ccccc1C(=O)NCC1(N2CCCCC2)CCCCC1	inactive: -8.54%
O=C(NCC1(N2CCCCC2)CCCCC1)c1cccc(Br)c1	inactive: -11.8%
CCN1CCCC(OC(=O)C2(O)c3ccccc3C=Cc3ccccc32)C1 (stereo not given)	inactive: -5.83%
Cc1cc(C(=O)NCC2(N3CCCCC3)CCCCC2)ccc1[N+](=O)[O-]	inactive: -19.3%
COc1ccc(C(=O)NCC2(N(C)C)CCCCC2)cc1	inactive: -3.32%
O=C(NCC1(N2CCCCC2)CCCCC1)c1cc(F)c(F)cc1Cl	inactive: 4.23%
C=CCN1CCN(CCOC(=O)C(O)(c2ccccc2)c2ccccc2)CC1	inactive: 0.75%
CN1[C@@H]2CC[C@H]1CC(OC(=O)C(O)(c1ccccc1)c1ccccc1)C2 (stereo not given in full)	inactive: 0.3%
O=C(NCC1(N2CCCCC2)CCCCC1)c1cc([N+](=O)[O-])ccc1Cl	inactive: 6.83%
Cc1ccc(C(=O)NCC2(N3CCCCC3)CCCCC2)cc1	inactive: 1.83%
CC(C)N1C(=O)CC2(CCN(CCOC(=O)C(O)(c3ccccc3)c3ccccc3)CC2)C1=O	inactive: -1.44%
COc1cc(SC)ccc1C(=O)NCC1(N(C)C)CCCCC1	inactive: -4.72%
CCN(CC)CC(C)C(C)OC(=O)C(O)(c1ccccc1)c1ccccc1 (stereo not given)	inactive: -7.3%
